Antibody variant affinities, Ab-95 light chain, assay 2

Binding partner: SARS-CoV-2 spike HR2 peptide, sequence PDVDLGDISGINAS.

The variants keep the heavy chain, the linker and the frameworks of Ab-95 (scFv order VH, a (GGGGS)3 linker, VL).
VH: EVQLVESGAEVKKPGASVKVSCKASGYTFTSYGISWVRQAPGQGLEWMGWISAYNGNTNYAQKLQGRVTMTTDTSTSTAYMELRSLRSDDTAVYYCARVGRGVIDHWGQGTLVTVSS
VL: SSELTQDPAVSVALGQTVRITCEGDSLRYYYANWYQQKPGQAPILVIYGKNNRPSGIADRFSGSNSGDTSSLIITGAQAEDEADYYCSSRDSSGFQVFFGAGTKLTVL

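Phage display of a naive human antibody library on the peptide gave the parent. Variants in AAYL52 differ from the parent at up to three CDR positions; double and triple changes were sampled at random. AlphaSeq pools MATa yeast showing the antibodies with MATalpha yeast showing the peptide. Pairs that bind mate more often; barcode pairs of the diploids are counted by sequencing. Each replicate has its own calibration line, from reference interactions of the BCL2 family. There are three technical replicates.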

Each variant is given by its three light chain CDRs, as the data file delimits them; those of the parent are EGDSLRYYYAN, GKNNRPS, SSRDSSGFQVF. Every variant below is changed at S92 of the VL (sequential numbering). The read-out is the apparent dissociation constant on a log10 scale (nM): the lower, the stronger. Where no diploid with the target was found in that replicate, the entry reads "nd": below detection, most likely a poor binder, though not proof of it. Nonspecific signal, from three strains lacking the peptide, appeared in 28% of pairings of library AAYL52, centred on 3.91 (5% of these signals below 2.90); values are not corrected for it. The control count says in how many pairings with the empty strains this scFv gave a signal.

* EGDSLRHYRAN / GKNNRPS / SSRDQSGFQVF: 2.56, 2.43, 2.11 (controls 5 of 9)
* EGWSLRVYYAN / GKNNRPS / SSRDGSGFQVF: 4.36, 5.20, nd (controls 5 of 9)
* EGDSLRYYYAN / GKNNNPS / SSRHASGFQVF: nd, 2.98, nd (controls 2 of 9)
* EGDSLRYYYAN / GKNNRES / SSRDFSGFRVF: nd, 4.93, 2.24 (controls 0 of 9)
* EGESLRYYQAN / GKNNRPS / SSRDVSGFQVF: 1.16, 1.21, 0.57 (controls 5 of 9)
* EGDSLRYYYAN / GKNNLPS / SSRDTSQFQVF: 3.02, nd, nd (controls 2 of 9)
* EGDSLRYYYFN / GKNGRPS / SSRDRSGFQVF: 4.55, nd, nd (controls 4 of 9)
* EGDSLRYYYAN / GKNNRPS / SHRDKSGFQVF: 3.32, nd, 3.69 (controls 6 of 9)
* EGDSLRYYGAI / GKNNRPS / SSRDESGFQVF: 2.13, 2.14, 1.48 (controls 7 of 9)
* EGDSLRYTYAN / PKNNRPS / SSRDASGFQVF: 2.61, 2.74, 3.25 (controls 0 of 9)
* EGDSLRYYYAN / GKNNRPS / SSRDISWFKVF: nd, nd, nd (controls 3 of 9)
* EGFSLRYYYMN / GKNNRPS / SSRDFSGFQVF: 3.55, 3.93, nd (controls 4 of 9)
* EGDSPRYYYAN / GKNMRPS / SSRDCSGFQVF: nd, nd, nd (controls 4 of 9)
* EGDSLRYYYAN / GKNNRPS / SARDFSYFQVF: nd, 3.93, nd (controls 2 of 9)
* EGDSQRVYYAN / GKNNRPS / SSRDESGFQVF: 5.77, 3.74, 2.72 (controls 3 of 9)
* EGDSLRYYYEN / GKNNRPS / SSRPCSGFQVF: 2.79, 2.89, 2.66 (controls 3 of 9)
* ECDSLKYYYAN / GKNNRPS / SSRDDSGFQVF: nd, 5.17, nd (controls 0 of 9)
* EGQSLRYYYAN / GKMNRPS / SSRDCSGFQVF: 4.70, nd, nd (controls 2 of 9)
* EGDSLRYYYAN / GKNNRPS / SMRDPSGFQDF: 3.40, 4.04, nd (controls 1 of 9)
* EGDSLRYYYAN / GSNNRPS / SSRDRSGNQVF: 2.39, 2.57, 1.91 (controls 3 of 9)
* EGDSLRYYYAN / GKNNRHS / SSADTSGFQVF: nd, nd, nd (controls 1 of 9)
* EGDSLRYYYAN / GKNNRPS / SSRSFSGHQVF: 3.75, 3.34, 4.22 (controls 3 of 9)
* CLDSLRYYYAN / GKNNRPS / SSRDLSGFQVF: nd, nd, nd (controls 1 of 9)
* EGDSLRYYYAN / GKNNRPS / SSRDWSGFQNA: 2.72, 2.69, 3.00 (controls 2 of 9)
* EGDSLRYYYAN / GKGNRPS / SSRDIAGFQVF: 2.78, 2.28, 1.88 (controls 3 of 9)
* EGDCLRYYYAN / GKNNRPS / SSRDLSGFQVI: nd, 4.78, nd (controls 2 of 9)
* EGDSLRYYYAN / GKNNRPF / SSRDASGVQVF: 2.81, 2.63, 3.27 (controls 2 of 9)
* EGDSLRYYYAN / GKNNRPS / SSRDASGFQVF: 1.70, 1.97, 1.24 (controls 1 of 9)
* EGDSLRYYYAN / GKINRPS / SGRDASGFQVF: 3.55, 3.24, 2.67 (controls 2 of 9)
* EGDSLRYYYAN / GKNRRPS / SSRDGSGWQVF: nd, nd, nd (controls 1 of 9)
* EGDHLRYYYAN / GKNNRPS / SSRDKAGFQVF: 2.60, 2.79, 3.04 (controls 3 of 9)
* EGDSLRYYYAN / GKTNRPS / SSLDNSGFQVF: 2.82, 2.82, 3.71 (controls 1 of 9)
* EGDSGRCYYAN / GKNNRPS / SSRDKSGFQVF: 1.74, 1.96, 1.29 (controls 3 of 9)
* EGDSLRYYYAG / GKNNRPS / GSRDRSGFQVF: nd, nd, nd (controls 1 of 9)
* EGDSLRYYYAN / GKNNRPS / SSRGISGWQVF: 2.56, 3.00, 3.06 (controls 4 of 9)
* EGDSLRYYYAN / GKNNRPS / SSRDWSGLQVF: nd, 2.85, nd (controls 0 of 9)
* EGDSLRYYYAN / IKNNRPS / SSRDLSGEQVF: 4.20, 5.05, 4.13 (controls 2 of 9)

Repeated from above, the 2 best binders with a signal in all replicates:

{"CDR-L1": "EGESLRYYQAN", "CDR-L2": "GKNNRPS", "CDR-L3": "SSRDVSGFQVF", "log10 Kd, replicates": "1.16, 1.21, 0.57", "empty controls": "5 of 9"}
{"CDR-L1": "EGDSLRYYYAN", "CDR-L2": "GKNNRPS", "CDR-L3": "SSRDASGFQVF", "log10 Kd, replicates": "1.70, 1.97, 1.24", "empty controls": "1 of 9"}

In this assay the parent's reference entry averaged 2.31; its copy inside this library read 2.25.

Data: MIT Lincoln Laboratory AlphaSeq set, Engelhart et al. 2022, doi:10.1038/s41597-022-01779-4, as distributed in FLAb.